Source: PubChem BioAssay AID540263 (National Center for Advancing Translational Sciences (NCATS), 2011)
The campaign covered roughly 340,000 compounds. About 100 (0.029%) were called active. Not shown: some 8% with an inconclusive outcome. Calls follow the shape of the full dose curve. The sample as a whole holds a higher share of actives than the screen did.

Protein sequences, listed by entry. Tags and fused reporters are not part of them.
UniProt Q14974, whole entry, looked up: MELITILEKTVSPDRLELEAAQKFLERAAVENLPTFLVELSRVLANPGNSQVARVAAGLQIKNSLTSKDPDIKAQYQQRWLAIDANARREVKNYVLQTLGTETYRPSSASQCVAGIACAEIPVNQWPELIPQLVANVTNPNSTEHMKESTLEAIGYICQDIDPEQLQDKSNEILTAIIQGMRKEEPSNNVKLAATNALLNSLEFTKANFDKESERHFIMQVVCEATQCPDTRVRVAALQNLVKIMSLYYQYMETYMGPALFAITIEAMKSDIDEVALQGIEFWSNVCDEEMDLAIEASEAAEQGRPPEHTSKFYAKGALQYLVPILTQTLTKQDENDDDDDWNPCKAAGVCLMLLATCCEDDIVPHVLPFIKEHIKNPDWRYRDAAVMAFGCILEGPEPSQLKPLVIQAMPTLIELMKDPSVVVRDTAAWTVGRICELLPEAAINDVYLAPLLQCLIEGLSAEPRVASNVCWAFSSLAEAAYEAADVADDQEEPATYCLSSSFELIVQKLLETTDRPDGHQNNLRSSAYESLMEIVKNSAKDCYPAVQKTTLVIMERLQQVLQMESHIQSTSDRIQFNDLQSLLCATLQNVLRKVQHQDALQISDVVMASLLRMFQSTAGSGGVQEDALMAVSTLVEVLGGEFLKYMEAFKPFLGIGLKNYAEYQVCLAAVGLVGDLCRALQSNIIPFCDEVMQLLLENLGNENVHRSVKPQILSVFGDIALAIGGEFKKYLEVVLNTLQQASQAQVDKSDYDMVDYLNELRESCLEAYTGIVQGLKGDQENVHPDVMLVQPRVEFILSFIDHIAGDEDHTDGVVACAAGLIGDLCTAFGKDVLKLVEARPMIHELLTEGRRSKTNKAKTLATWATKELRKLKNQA

Target: Importin subunit beta-1 (Homo sapiens) (UniProt Q14974)
Test: qHTS Assay for Inhibitors of Rango (Ran-regulated importin-beta cargo) - Importin beta complex formation; also: nearly all actives have a fitted effect of over 15% in size;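 as to inhibition of complex formation: 0% = DMSO wells and 100% = buffer wells lacking importin beta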
Conditions: Rango CFP/YFP FRET sensor + importin beta, 45 min; series mostly up to 92.2 µM; inhibition of complex formation: at the top concentration
Excerpt: NIH Molecular Libraries Probe Production Centers Network [MLPCN] NIH Chemical Genomics Center [NCGC] MLPCN Grant: R03 MH090808-01A1 Assay Submitter (PI): Petr Kalab NCGC Assay Overview: The small GTPase Ran regulates transport of macromolecules between the nucleus and the cytoplasm (nuclear transport) and has important functions in mitotic spindle assembly, nuclear envelope (NE) formation and nuclear pore complex (NPC) assembly. RanGTP gradient is thought to promote spindle assembly by providing a spatial clue to microtubule nucleation and Aurora A activation. Because the localized release and binding of importin alpha cargo relays this spatial clue to SAFs, inhibitors of the Rango - importin beta complex can then be used in further understanding their role in cell cycle specifically in mitosis progression. […] Activation of Aurora A has been linked to different types of cancer and a number of Aurora kinase inhibitors are being developed as potential canter therapeutics therefore, identified inhibitors of this complex could be developed into potential anti-mitotic probes for cancer treatment. Purified recombinant proteins Rango and importin beta were provided by the assay submitter. The assay used a fluorescence resonance energy transfer (FRET) Rango biosensor that contains the IBB of human snurportin 1 flanked by yellow fluorescent protein (EYFP) at the amino terminus and cerulean CFP10 at the carboxy terminus. […] Inhibitors will therefore be identified based on the ability to interfere with the FRET signal decrease. DMSO treated and no importin beta (buffer only) wells were used as negative and positive controls respectively. FRET readings were obtained at two time points. FRET reading prior to importin beta addition (pre-read) were used flag potential compound interference; FRET reading after importin beta addition (post-read) were used to identify inhibitors using the FRET ratio parameter.
NCGC Assay Protocol Summary: Two and a half uL/well of Rango-buffer solution (50 nM Rango, 1x PBS, 1mM DTT, 0.02% Tween-20, 0.1% BSA final concentrations) was dispensed into 1536-well assay plates (Greiner, solid black medium-binding plates) with Aurora Discovery BioRAPTR Flying Reagent Dispenser (FRD; Beckton-Dickenson). Compound solution (23 nL) was transferred to the assay plate using Kalypsys pin tool equipped with a 1536-pin tool and incubated at room temperature for 5 min followed by a FRET pre-read using the PerkinElmer Envision plate reader. Two and a half uL/well of Importin beta - buffer solution (0.125 microM importin beta, 1x PBS, 1mM DTT, 0.02% Tween-20, 0.1% BSA final concentrations) were then added and incubated at room temperature giving a final reaction volume of 5uL. After 45min FRET post-read was obtained via the Envision plate reader using the same optics and settings as the pre-read (CFP/YFP optimized dual optical module D450/D505; excitation mirror CFP 430/24 nm; and emission filters CFP 486/10 nm and YFP 530/10 nm).
Potency is read from the fitted curve at half-maximal effect; tags tell the direction and shape of the fitted curve.

| Structure (SMILES) | inhibition of complex formation | Potency |
| --- | --- | --- |
| C#CCOCCOCCOCCNc1nc(N2CCN(C(=O)Cn3cc(CCO)nn3)CC2)nc(N2CCN(C(=O)[C@H](CCCCN)n3cc(CCCC)nn3)CC2)n1 | 2.5% (inactive) |  |
| O=S1(=O)CCOC[C@H](Cc2ccccc2)N1Cc1ccccc1Br | 1.72% (inactive) |  |
| Cc1ccc(Oc2nc(-c3ccccn3)nc3ccccc23)cc1 | 1.95% (inactive) |  |
| CC(C)(C)Nc1nc(-c2ccccn2)nc2ccccc12 |  | 58 µM (active) |
| Cc1nc2ccccc2c(C(=O)O)c1-c1ccccn1 | -3.52% (inactive) |  |
| COc1cc2c(cc1CNC[C@H]1O[C@@H](n3cnc(C(N)=O)n3)[C@H](O)[C@@H]1O)OCO2 | 0.344% (inactive) |  |
| NC1=NOC(=O)C1C1CCCCC1 (centres undefined) | 2.74% (inactive) |  |
| NC(=S)NN=C1CCCC(C(F)(F)F)C1 (centres undefined) | 0.299% (inactive) |  |
| O=C(OC12CC3CC(CC(C3)C1)C2)c1ccc(NCc2cc(O)ccc2O)cc1 | 0.607% (inactive) |  |
| O=C(O)c1ccc([N+](=O)[O-])cc1Sc1ccsc1 | -1.6% (inactive) |  |
| CN(CCc1ccccc1)C(=O)c1cccc(NC(=O)Cc2cccc(NC(=O)C3CCCN(C(=O)C4CCC4)C3)c2)c1 (centres undefined) | 1.49% (inactive) |  |
| CN(C(=O)c1cccc(NC(=O)Cc2ccc(NC(=O)C3CCCN(C(=O)C4CC4)C3)cc2)c1)C1CC1 (centres undefined) | 5.33% (inactive) |  |
| C=CCN1C=C(C(=O)c2ccccc2)C(=O)CC1 | 1.13% (inactive) |  |
| Cc1nc(Nc2ccccc2C)c2cnn(C)c2n1 | 0.799% (inactive) |  |
| O=C(c1cccc(S(=O)(=O)N2CCCCCC2)c1)N1CCN(Cc2ccccc2)CC1 | 2.11% (inactive) |  |
| C=CCOC(=O)N1CCC2CC1c1cc(-c3ccc(OC)cc3)ccc12 (centres undefined) | -2.77% (inactive) |  |
| O=C(NCCc1ccccc1)c1c[nH]c2ccc(F)cc2c1=O | -0.0045% (inactive) |  |
| COc1ccc(CCC(=O)Nc2ccc(Cl)c(S(=O)(=O)N3CCOCC3)c2)cc1OC | -0.735% (inactive) |  |
| O=C(CNC(=O)c1cc(S(=O)(=O)N2CCOCC2)ccc1N1CCCC1)Nc1ccc(F)c(F)c1 | 0.285% (inactive) |  |
| Cc1ccc(NC(=O)C(C)OC(=O)C2CC3CCCC(C2)C3=O)cc1S(=O)(=O)N1CCOCC1 (centres undefined) | -0.445% (inactive) |  |
| Cn1cc(C2OC(=O)c3ccccc32)c2ccccc21 (centres undefined) | -2.51% (inactive) |  |
| O=C(Nc1ccc(S(=O)(=O)N2CCOCC2)cc1)C1CCN(S(=O)(=O)c2ccc(Cl)cc2)CC1 | -0.232% (inactive) |  |
| CC1C(C)N(C(=O)CCl)c2ccccc2N1C(=O)CCl (centres undefined) | 2.49% (inactive) |  |
| NS(=O)(=O)c1ccc(CCNC(=O)c2ccc(Cl)c(S(=O)(=O)N3CCCCCC3)c2)cc1 | -0.982% (inactive) |  |
| O=C1c2ccccc2C(=O)N1CCCCCCN1C(=O)c2ccccc2C1=O | -4.66% (inactive) |  |
| CC(C)C[C@H]1CN([C@@H](CC(C)C)CN2CCC[C@@H]2CN2C(=O)C(=O)NC[C@@H]2Cc2ccccc2)C(=O)C(=O)N1CCc1ccccc1 | -4.53% (inactive) |  |
| COc1ccc(-c2ccc3c(c2)C2CC3CCN2CCC#N)cc1 (centres undefined) | -0.906% (inactive) |  |

| Structure (SMILES) | inhibition of complex formation | Potency |
| --- | --- | --- |
| CN(C)C(CNC(=O)c1cc2ccccc2o1)c1ccccc1 (centres undefined) | 0.201% (inactive) |  |
| CCCCNC1(C#N)CCN(Cc2ccccc2)CC1 | -0.281% (inactive) |  |
| NC(=O)C1(Nc2ccccc2Cl)CCCC1 | 1.43% (inactive) |  |
| COc1ccc(S(=O)(=O)N2CCc3ccccc32)cc1C(=O)Nc1cc(S(C)(=O)=O)ccc1Cl | 1.2% (inactive) |  |
| Cc1cc(NC(=O)C(C)SCC(=O)Nc2cccc(S(=O)(=O)N3CCCCCC3)c2)no1 (centres undefined) | -13.4% (inactive) |  |
| NC(=O)c1ncn([C@@H]2O[C@H](CN=C3NS(=O)(=O)c4ccccc43)[C@@H](O)[C@H]2O)n1 | 0.0699% (inactive) |  |
| Cc1cc([N+](=O)[O-])c(=O)[nH]c1C | -4.18% (inactive) |  |
| O=C1OC(Cc2ccccc2)C(c2ccccc2)C1=O (centres undefined) | 1.66% (inactive) |  |
| O=C(Nc1ccn(CCCNCc2ccc3[nH]ccc3c2)c(=O)n1)OCc1ccccc1 | 1% (inactive) |  |
| CCCCNCCS(=O)(=O)NCc1ccccc1 | -2.8% (inactive) |  |
| CNc1nc(=O)n(C2CCCO2)cc1C (centres undefined) | -3.1% (inactive) |  |
| S=C(Nc1ccccc1)Nc1ccc2ccccc2c1 | -0.599% (inactive) |  |
| COc1ccc(S(=O)(=O)N2C[C@H]3CON(C)[C@H]3C[C@H]2c2cccc(Br)c2)cc1 | 1.49% (inactive) |  |
| Cc1ccc(-c2csc(C(C#N)=C(O)CN3CCN(C(=O)c4ccco4)CC3)n2)cc1 | -1.82% (inactive) |  |
| Cc1ccc(S(=O)(=O)N2CCC(C(=O)N3CCCCCCC3)CC2)cc1 | 4.24% (inactive) |  |
| CCCCC(=O)NC(c1ccc(OC)c(OC)c1)c1ccc2cccnc2c1O (centres undefined) | 1.17% (inactive) |  |
| CCC1(C)COC(c2ccc(OC)c(OC)c2)OC1 (centres undefined) | 0.785% (inactive) |  |
| CCC(C)C1(C2CCCC2)NC(=O)NC1=O (centres undefined) | -3.68% (inactive) |  |
| Cc1nn(-c2ccc(F)cc2)c(Cl)c1/C=C(/CCC(=O)O)c1nc2ccccc2s1 | -3.7% (inactive) |  |
| COc1cc(OC)c(C(=O)NNC(=O)c2ccc(NS(=O)(=O)c3cccs3)cc2)cc1OC | -0.772% (inactive) |  |
| CC(=O)OCC1(O)CC23CCC4c5ccoc5CCC4(C)C2CCC1C3 (centres undefined) | 0.228% (inactive) |  |
| CC1CCCN(C(=O)Cn2c(=O)oc3cc(S(=O)(=O)N4CCCCC4C)ccc32)C1 (centres undefined) | -0.022% (inactive) |  |
| CCCCN(C(=O)CSCc1ccc(C)cc1)c1c(N)n(Cc2ccccc2)c(=O)[nH]c1=O | -2.96% (inactive) |  |
| OCC1(CO)CC2(C1)CC(CO)(CO)C2 | 2.26% (inactive) |  |
| Cc1ccc(S(=O)(=O)CC(=O)Nc2nnc(C)s2)cc1 |  | 65.1 µM (active) |
| Cc1ccc(S(=O)(=O)CCC(=O)Nc2nnc(CC(C)C)s2)cc1 | -0.478% (inactive) |  |
| Cc1ccc(S(=O)(=O)CC(=O)Nc2sc(C)c(C)c2C(N)=O)cc1 | -2.87% (inactive) |  |
